Assay results as given in PMC12916490 (Molecular Psychiatry, 2025).

Amino acid sequences for entries named in this document (tags omitted).
UniProt P28223, whole entry, looked up: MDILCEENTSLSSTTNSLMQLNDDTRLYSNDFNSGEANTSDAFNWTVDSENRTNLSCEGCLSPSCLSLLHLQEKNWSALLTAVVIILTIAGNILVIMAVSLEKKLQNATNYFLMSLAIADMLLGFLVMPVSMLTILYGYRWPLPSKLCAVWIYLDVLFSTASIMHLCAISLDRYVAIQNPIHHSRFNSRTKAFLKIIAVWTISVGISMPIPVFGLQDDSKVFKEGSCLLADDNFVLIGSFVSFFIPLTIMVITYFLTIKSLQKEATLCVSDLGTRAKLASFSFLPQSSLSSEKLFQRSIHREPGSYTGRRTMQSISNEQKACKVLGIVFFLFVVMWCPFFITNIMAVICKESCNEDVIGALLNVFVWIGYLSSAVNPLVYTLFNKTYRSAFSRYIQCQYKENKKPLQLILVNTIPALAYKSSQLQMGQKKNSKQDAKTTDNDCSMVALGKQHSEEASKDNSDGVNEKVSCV

Experiments:
h5-HT2A [1] = target: T1, h5-HT2A (Homo sapiens, UniProt P28223); assay: β-arrestin 2 recruitment (NanoBiT), h5-HT2A; assay type: cell-based; set-up: expressed in transfected cells
Procedure: (§1) Activation of h5-HT2A, h5-HT2B, and h5-HT2C receptors was examined by measuring the accumulation of inositol monophosphate (IP1) as a marker for Gαq-mediated signaling. For h5-HT2A, additional assays measured β-arrestin 2 recruitment and arachidonic acid release, the latter serving as a marker of Gαi/o,12/13 activation. The methodology is described in detail in the Supplementary information.
(§2) The IC50 values from the radioligand binding assays were determined by nonlinear regression, using three independent concentration-response curves fitted to a one-site model. The Cheng-Prusoff equation was used to calculate Kᵢ values for the competing ligands. EC50 values were determined by applying nonlinear regression to concentration-response curves. Bias factors (β) were calculated based on the relative intrinsic activity approach. […]
(§3) agonist solutions was added, and the signal was monitored for 2 h. […]
(§4) Arachidonic acid release was assessed as a marker for Gαi/o,12/13 mediated signaling. […]
(§5) Thereafter, the plate was put on ice, and 400 μL incubation supernatant per well was transferred int o scintillation vials containing scintillation fluid (Ultimagold, Perkin Elmer, Schwerzenbach, Switzerland). […] Radioactivity was measured on a liquid scintillation counter (Packard 1900 TR Tri-Carb Liquid Scintillation Counter; Packard Instrument Company). […]

h5-HT2A [2] = target: T1, h5-HT2A; assay: biochemical; assay type: binding; set-up: expressed in transfected cells; host or cells: HEK 293 cells (membrane preparation)
h5-HT2A [3] = target: T1, h5-HT2A; assay: IP1 formation (Gαq-mediated signaling), h5-HT2A; assay type: cell-based; set-up: expressed in transfected cells; host or cells: HEK 293 cells (membrane preparation)
h5-HT2A [4] = target: T1, h5-HT2A; assay: Arachidonic acid release (Gαi/o,12/13 marker), h5-HT2A; assay type: cell-based; set-up: expressed in transfected cells; host or cells: HEK 293 cells (membrane preparation)
Procedure: as §1, §2, §3, §4, §5

Which EC50 (h5-HT2A [1]) does the source give for `COc1ccc(OC)c(CC(C)N)c1.Cl` (stereo not shown) [2,5-DMA, 2,5-Dimethoxyamphetamine hydrochloride] here?
Its EC50 is 1660 nM.

And the Ki (h5-HT2A [2])?
The Ki was 2500 nM.

What about the EC50 (h5-HT2A [3]) of the same compound?
The EC50 was 1380 nM.

And the EC50 (h5-HT2A [4])?
The EC50 was 160 nM.
